The results in this text go back to ChEMBL document CHEMBL1126242 (J Med Chem, 1992).

In the test the target is T1, Endothelin receptor type B (Rattus norvegicus, UniProt P21451).
T1 sequence (P21451 whole entry): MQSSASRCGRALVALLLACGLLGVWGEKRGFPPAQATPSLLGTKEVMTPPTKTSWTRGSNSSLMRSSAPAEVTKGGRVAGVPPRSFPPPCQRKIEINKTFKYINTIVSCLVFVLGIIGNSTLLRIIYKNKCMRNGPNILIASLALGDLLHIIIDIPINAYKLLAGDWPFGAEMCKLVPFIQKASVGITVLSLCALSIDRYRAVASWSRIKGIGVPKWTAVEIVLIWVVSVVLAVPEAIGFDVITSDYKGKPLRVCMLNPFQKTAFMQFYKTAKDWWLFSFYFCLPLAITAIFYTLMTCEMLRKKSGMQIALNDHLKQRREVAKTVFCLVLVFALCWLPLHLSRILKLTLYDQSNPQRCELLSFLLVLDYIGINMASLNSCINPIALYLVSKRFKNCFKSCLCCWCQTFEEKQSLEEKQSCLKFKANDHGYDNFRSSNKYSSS
Put plainly: Inhibition of ET-1 binding to Endothelin B receptor in cultured rat cerebellar membranes. It counts as cell membranes, Membrane.
By IC50 is commonly meant the concentration at which inhibition is half-maximal. Higher therefore signals weaker potency. `CC[C@H](C)[C@H](NC(=O)[C@H](CC(=O)O)NC(=O)[C@H](CC(C)C)NC(=O)[C@@H](Cc1c[nH]c2ccccc12)NC(C)=O)C(=O)N[C@H](C(=O)N[C@@H](Cc1c[nH]c2ccccc12)C(=O)O)[C@@H](C)CC` came in with an IC50 of 1.8 µM.

`CC[C@H](C)[C@H](NC(=O)[C@H](CC(=O)O)NC(=O)[C@H](CC(C)C)NC(=O)[C@@H](N)Cc1c[nH]cn1)C(=O)N[C@H](C(=O)N[C@@H](Cc1c[nH]c2ccccc12)C(=O)O)[C@@H](C)CC` had an IC50 of over 50 µM.

In the case of `CC[C@H](C)[C@H](NC(=O)[C@H](CC(=O)O)NC(=O)[C@H](CC(C)C)NC(=O)[C@@H](Cc1ccc(-c2ccccc2)cc1)NC(C)=O)C(=O)N[C@H](C(=O)N[C@@H](Cc1c[nH]c2ccccc12)C(=O)O)[C@@H](C)CC`, the IC50 turned out to be 3.5 µM. This lies in the single-digit micromolar range.
